The values below are quoted from earlier work in patent US10906890B2, “Triazole phenyl compounds as agonists of the APJ receptor” (AMGEN INC., priority 2016, dated 2021).

Chains of the proteins cited; added tags and fusions are not shown. Lines headed by an entry give the natural chain unless they say otherwise; changes in a name come on top.
UniProt P35414: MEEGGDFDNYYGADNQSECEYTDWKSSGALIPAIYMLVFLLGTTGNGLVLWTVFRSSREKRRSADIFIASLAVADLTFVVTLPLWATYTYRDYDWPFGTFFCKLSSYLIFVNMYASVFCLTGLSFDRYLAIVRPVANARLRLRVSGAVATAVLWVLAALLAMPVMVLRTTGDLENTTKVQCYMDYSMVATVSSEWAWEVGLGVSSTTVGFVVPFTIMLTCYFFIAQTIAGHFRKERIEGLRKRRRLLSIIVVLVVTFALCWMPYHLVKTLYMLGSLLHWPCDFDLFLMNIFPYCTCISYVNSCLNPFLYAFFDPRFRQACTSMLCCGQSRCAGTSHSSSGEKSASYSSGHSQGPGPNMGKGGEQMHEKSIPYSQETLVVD

The data set addresses APJ receptor (Homo sapiens (Human), UniProt P35414). To be noted: higher affinity than apelin-36; cited from earlier work.

Apelin-13: the “in vitro affinity to the APJ receptor relative to apelin-36” value is recorded as approximately 3.5 fold.
